Test results from ChEMBL document CHEMBL1201862, “PubChem BioAssay data set” (2004).
Active and inactive are the calls of the source.

Sequences of proteins named here, by UniProt entry; tags and fusion partners are left off. A change or cut given only in a name is not applied to a line headed by its entry.
UniProt Q9NZ08: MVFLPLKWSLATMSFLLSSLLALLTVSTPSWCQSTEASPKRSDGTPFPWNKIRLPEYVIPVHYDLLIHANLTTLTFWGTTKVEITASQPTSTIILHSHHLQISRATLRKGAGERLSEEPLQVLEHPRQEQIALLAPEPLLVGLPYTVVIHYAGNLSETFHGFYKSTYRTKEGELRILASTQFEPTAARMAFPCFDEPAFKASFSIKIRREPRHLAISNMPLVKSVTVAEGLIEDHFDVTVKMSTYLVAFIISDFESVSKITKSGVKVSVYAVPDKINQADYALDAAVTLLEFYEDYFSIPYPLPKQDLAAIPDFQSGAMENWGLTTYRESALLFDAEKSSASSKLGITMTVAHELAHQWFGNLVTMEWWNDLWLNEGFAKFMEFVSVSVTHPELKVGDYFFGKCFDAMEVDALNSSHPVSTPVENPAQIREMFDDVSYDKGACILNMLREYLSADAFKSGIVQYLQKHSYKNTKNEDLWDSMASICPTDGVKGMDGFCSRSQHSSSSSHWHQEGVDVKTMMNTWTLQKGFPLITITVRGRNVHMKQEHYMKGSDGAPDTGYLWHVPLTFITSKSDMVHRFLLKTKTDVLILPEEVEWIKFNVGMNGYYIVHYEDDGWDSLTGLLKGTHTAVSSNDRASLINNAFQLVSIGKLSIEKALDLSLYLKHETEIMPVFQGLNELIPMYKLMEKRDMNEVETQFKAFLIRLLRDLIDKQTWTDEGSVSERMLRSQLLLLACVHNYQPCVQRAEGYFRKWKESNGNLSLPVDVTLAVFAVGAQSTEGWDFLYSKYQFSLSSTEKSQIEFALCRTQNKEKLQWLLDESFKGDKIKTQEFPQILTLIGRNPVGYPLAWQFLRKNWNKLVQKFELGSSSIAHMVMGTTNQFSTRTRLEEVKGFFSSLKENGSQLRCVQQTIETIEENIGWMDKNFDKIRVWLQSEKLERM
UniProt P33261, whole entry: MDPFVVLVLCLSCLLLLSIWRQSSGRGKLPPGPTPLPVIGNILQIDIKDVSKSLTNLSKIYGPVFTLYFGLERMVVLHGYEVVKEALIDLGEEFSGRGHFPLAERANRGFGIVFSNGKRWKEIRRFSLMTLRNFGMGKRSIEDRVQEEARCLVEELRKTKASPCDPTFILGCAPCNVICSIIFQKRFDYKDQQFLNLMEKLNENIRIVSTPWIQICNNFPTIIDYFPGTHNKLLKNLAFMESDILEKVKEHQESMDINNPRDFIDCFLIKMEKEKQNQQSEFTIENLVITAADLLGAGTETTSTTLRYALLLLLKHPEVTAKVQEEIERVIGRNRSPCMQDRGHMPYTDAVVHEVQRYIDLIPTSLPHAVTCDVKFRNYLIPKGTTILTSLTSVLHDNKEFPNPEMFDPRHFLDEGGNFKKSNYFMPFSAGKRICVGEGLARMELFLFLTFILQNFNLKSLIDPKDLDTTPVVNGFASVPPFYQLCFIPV
UniProt P11712, whole entry: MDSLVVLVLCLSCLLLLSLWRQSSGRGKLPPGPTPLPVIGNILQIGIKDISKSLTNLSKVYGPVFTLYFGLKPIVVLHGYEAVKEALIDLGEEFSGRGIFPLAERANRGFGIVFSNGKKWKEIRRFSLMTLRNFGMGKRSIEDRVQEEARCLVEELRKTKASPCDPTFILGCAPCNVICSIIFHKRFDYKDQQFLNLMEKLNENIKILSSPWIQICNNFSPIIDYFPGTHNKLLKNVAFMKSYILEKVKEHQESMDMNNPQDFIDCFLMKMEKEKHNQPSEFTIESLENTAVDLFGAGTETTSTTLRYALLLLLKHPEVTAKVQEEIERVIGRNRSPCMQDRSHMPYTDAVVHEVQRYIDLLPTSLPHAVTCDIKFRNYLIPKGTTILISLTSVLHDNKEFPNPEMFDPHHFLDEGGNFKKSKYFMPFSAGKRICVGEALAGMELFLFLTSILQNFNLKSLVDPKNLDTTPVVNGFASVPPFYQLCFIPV
UniProt Q8VNN2, whole entry: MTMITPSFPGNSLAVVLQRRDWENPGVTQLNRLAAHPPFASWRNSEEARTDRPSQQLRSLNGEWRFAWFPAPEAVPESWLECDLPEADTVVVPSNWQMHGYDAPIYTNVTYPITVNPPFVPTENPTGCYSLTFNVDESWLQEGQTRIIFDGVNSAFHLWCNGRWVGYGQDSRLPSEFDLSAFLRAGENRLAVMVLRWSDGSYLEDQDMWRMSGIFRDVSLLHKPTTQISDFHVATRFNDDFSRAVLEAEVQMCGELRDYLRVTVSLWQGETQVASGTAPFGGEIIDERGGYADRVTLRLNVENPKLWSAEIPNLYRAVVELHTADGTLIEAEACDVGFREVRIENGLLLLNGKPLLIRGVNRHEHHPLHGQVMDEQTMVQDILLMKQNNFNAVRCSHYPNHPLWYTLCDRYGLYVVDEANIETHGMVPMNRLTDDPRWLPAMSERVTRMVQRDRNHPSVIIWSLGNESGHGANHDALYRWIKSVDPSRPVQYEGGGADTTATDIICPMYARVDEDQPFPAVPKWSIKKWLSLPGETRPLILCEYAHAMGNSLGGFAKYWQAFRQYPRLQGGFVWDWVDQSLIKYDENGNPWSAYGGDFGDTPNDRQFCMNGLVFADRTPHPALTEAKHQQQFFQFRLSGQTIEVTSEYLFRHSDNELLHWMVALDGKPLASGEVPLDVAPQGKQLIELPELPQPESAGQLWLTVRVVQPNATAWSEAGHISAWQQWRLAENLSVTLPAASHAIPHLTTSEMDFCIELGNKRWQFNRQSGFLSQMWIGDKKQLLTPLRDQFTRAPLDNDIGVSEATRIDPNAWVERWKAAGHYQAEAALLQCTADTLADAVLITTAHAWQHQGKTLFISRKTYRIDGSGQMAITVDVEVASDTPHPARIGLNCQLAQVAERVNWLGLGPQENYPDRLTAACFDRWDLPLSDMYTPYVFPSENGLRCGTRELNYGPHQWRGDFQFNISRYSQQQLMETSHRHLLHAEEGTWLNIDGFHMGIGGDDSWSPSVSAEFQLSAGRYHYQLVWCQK

Experiments:
[1] = target: Endoplasmic reticulum aminopeptidase 1 (Homo sapiens, UniProt Q9NZ08); assay: inhibition of human ERAP1 enzyme activity – biochemical, cherry-pick, set 2, plate reader, dose response (AID 743314)
Cytochrome P450 2C19 = Cytochrome P450 2C19 (Homo sapiens, UniProt P33261); assay: Cytochrome panel assay with activity outcomes. Panel member name: p450-cyp2c19 Compounds with AC50 equal or less than 10 uM are considered active; assay type: functional
Cytochrome P450 2C9 = Cytochrome P450 2C9 (Homo sapiens, UniProt P11712)
Beta-galactosidase = Beta-galactosidase (Escherichia coli, UniProt Q8VNN2); assay: PubChem AID 485352; assay type: functional
[2] = target: Type-1 angiotensin II receptor (Homo sapiens, UniProt P30556); assay: antagonism of angiotensin II type 1 receptor – cell-based, uHTS hits, selectivity assay for APJ receptor antagonist project, dose response (AID 463214); assay type: functional;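 note: antagonist potency against angiotensin II stimulated AT1 response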
Protein RecA = target: T1, Protein RecA (Mycobacterium tuberculosis, UniProt P9WHJ3); assay: Fluorescence Cell-Free Homogeneous Dose Retest to Identify Inhibitors of RecA-Intein Splicing Activity. [Related pubchem assays (depositor defined):AID2097, AID2223, AID489010, AID492950]; assay type: functional
T1 sequence (P9WHJ3 whole entry): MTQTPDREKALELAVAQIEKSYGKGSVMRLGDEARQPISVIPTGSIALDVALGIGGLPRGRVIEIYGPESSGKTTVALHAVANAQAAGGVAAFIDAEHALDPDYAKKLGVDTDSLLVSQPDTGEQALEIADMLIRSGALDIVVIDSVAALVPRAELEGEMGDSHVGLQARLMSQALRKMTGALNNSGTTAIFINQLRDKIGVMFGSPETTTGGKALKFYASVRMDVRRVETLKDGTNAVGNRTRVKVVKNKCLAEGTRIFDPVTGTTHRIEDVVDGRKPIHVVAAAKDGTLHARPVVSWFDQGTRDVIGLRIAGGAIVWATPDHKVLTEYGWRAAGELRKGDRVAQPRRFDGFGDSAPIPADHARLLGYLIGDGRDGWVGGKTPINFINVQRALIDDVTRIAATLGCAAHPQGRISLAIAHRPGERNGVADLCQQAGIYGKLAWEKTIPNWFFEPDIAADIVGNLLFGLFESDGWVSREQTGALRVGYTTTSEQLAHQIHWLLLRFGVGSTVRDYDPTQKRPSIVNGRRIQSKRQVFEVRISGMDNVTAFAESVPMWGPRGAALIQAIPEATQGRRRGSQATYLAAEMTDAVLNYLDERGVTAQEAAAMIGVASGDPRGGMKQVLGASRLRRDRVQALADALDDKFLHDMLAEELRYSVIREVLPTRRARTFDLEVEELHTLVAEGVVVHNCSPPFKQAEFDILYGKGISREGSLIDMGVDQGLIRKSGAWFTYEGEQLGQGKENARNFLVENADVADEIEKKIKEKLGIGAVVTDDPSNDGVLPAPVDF

## O=c1ccc2ccc(O)cc2o1 [UMBELLIFERONE]
[1]
  AC50: active: 12.1 µM

## COc1cccc2c1C(=O)c1c(O)c3c(c(O)c1C2=O)C[C@](O)(C(C)=O)C[C@H]3O[C@@H]1C[C@H](N)[C@H](O)[C@H](C)O1
Cytochrome P450 2C19
  AC50: inactive
Cytochrome P450 2C9
  AC50: inactive

## Cc1ccnc(SCc2cc(=O)c(OC(=O)c3ccc(Cl)c([N+](=O)[O-])c3)co2)n1
Beta-galactosidase
  EC50: inactive: > 40 µM
[2]
  IC50: > 40 µM (not active)

## Cn1ncnc2c(=O)n(C)c(=O)nc1-2
Protein RecA
  EC50: active: < 0.018 µM
